Measured values taken from patent US20260384436A1, “POLYMORPHS OF NEK 7 INHIBITORS” (published 2026).
One block for each compound: values may come before it.

Columns and labels:
[1] = Heating experiment / VT-XRPD for solid form stability
Procedure: (§1) For XRPD analysis, PANalytical X-ray powder diffractometer was used.
VT-XRPD was performed on solid form Type A for form identification. According to the VT-XRPD result in FIG. 6, form change from solid form Type A into another new form, named as solid form Type O, was initially observed upon N2 sweeping and finished when heated to 100 °C. Based on the ^1H NMR spectrum and VT-XRPD result, solid form Type A was assigned as a hydrate.
Heating experiment was performed on solid form Type B for form identification. According to the XRPD result in FIG. 9, no form change was observed before and after heating solid form Type B to 150 °C and cooling it down to RT. Based on limited TGA weight loss, neat DSC curve, minor solvent residue in ^1H NMR and the heating experiment result, solid form Type B was assigned as an anhydrate.
Heating experiment was performed on solid form Type C for form identification. According to the result shown in FIG. 14 and ^1H NMR, after heating solid form Type C to 115 °C and cooling it down to RT, no form change was observed and the molar ratio of residual THF to API were 0.24 (3.3 wt %). According to the VT-XRPD result in FIG. 15, decrease of crystallinity was observed when heated to 120 °C and amorphization was observed when heated to 175 °C. Based on the above experimental results, solid form Type C was assigned as a (THF) solvate. As the XRPD pattern was also observed in other solvents (e.g., isoamyl alcohol, 1-pentanol and 2-MeTHF), isomorphism may exist for this form.
Heating experiment was performed on solid form Type D for form identification. According to the heating experiment result in FIG. 18, amorphization was observed after heating solid form Type D to 175 °C and cooling it down to RT. According to the solvent residue determined by ^1H NMR, TGA weight loss and heating experiment results, solid form Type D was assigned as an IPA solvate.
(§2) Heating experiment was performed on solid form Type E for form identification. According to the heating experiment result in FIG. 21, solid form Type E changed to amorphous when heated to 165 °C and cooled to RT. According to the solvent residue determined by 1H NMR, TGA weight loss and heating experiment results, solid form Type E was assigned as an m-Xylene solvate.
Heating experiment was performed on solid form Type F for form identification. […] According to the solvent residue determined by ^1H NMR, TGA weight loss and heating experiment results, solid form Type F was assigned as a DMSO solvate.
as §2, with “G” for “E”, “27,” for “21,”, “175” for “165”, “a 2-BuOH” for “an m-Xylene”
Heating experiment was performed on solid form Type H for form identification. According to the heating experiment result in FIG. 30, solid form Type H changed to amorphous when heated to 150 °C and cooled to RT. According to the TGA weight loss, solvent residue in NMR and heating experiment results, solid form Type H was assigned as a hydrate.
Heating experiment was performed on solid form Type I for form identification. According to the heating experiment result in FIG. 33, form change was observed when solid form Type I was heated to 100 °C and cooled to RT and DCM was absent in the heated sample. The obtained sample was named as solid form Type P. According to the ^1H NMR spectra and heating experiment result, solid form Type I was assigned as DCM solvate. Considering solid form Type I was also obtained in ACN slurry system, there might exist isomorphism.
Heating experiment was performed on solid form Type K for form identification. […]

[2] = Form change on ambient drying or ambient storage (XRPD); conditions: for form change before and after ambient drying: ambient drying overnight, XRPD
Procedure: as §1
Solid form Type B was obtained via addition of 2.0 mL n-heptane as anti-solvent into 0.5 mL EtOAc solution of starting material.
Solid form Type J was obtained via slow evaporation of starting material CHCl3 solution. […] Based on the limited TGA weight loss, neat DSC signals and minor solvent residue in ^1H NMR spectrum, solid form Type J was assigned as an anhydrate. Moreover, solid form Type J could convert to solid form Type L when stored under ambient condition with about ~45% RH overnight.

[3] = Dynamic vapor sorption (DVS) hygroscopicity, with XRPD before and after; conditions: for form change before and after DVS test: 25 °C, 0-95% RH, XRPD; for hygroscopicity: from water uptake at 25 °C/80% RH
Procedure: DVS was measured via a SMS (Surface Measurement Systems) DVS Intrinsic. The relative humidity at 25 °C were calibrated against deliquescence point of LiCl, Mg(NO3)2 and KCl.
DVS was performed on solid form Type B sample (the preparation and characterization results of which were described herein). […] Based on the XRPD overlay shown in FIG. 11, no form change was observed before and after DVS test.
Based on the XRPD overlay shown in FIG. 51, no form change was observed before and after DVS test.

[4] = Slurry competition of solid form Types B and Q (thermodynamic relationship); conditions: starting forms Type B/Q
Procedure: Slurry competition experiments were applied for solid form Type B and Q in ethyl acetate/n-heptane at 5 °C/RT/50 °C to further study thermodynamic relationship between these two anhydrates.
To further study thermodynamic relationship between the two anhydrates solid form Types B and Q, slurry competition experiments were applied in EtOAc/n-heptane at 5 °C/RT/50 °C.
Procedure: Corresponding solvents were pre-saturated with solid form Type Q and filtered to the weighted samples containing solid form Type B and solid form Type Q. After slurry at corresponding temperature for 2~4 days, the wet samples were tested by XRPD.

[5] = Approximate solubility of starting material at room temperature
Procedure: Approximate solubility of starting material was tested in 20 solvents at room temperature. In the experiments, ~2 mg solids were weighted into each 3 mL glass vial, corresponding solvent was then added stepwise (50/50/100/200/600/1000 μL) to see if solids dissolved completely. Solvent addition was halted when the solids dissolved, or total volume reached 2.0 mL. Approximate solubility was calculated based on the mass of solids and solvent volume. Solubility results were summarized in the table below, which was used to guide the solvent selection in the polymorph screening design.

[6] = heated to 120 °C and cooled to RT
[7] = heated to 175 °C and cooled to RT
[8] = heated to 100 °C and cooled to RT
[9] = heated to 150 °C and cooled to RT

form change before and after ambient drying [2]: no form change was observed
Structure (SMILES): Nc1ncnc2c1c(-c1ccc(NC(=O)Nc3cc(C4(C(F)(F)F)CC4)on3)c(F)c1)cn2C1CC1 [solid form Type K]
form change after heating [1, 6]: severe decrease in crystallinity was observed

form change after heating [1, 7]: changed to amorphous
form change before and after ambient drying [2]: no form change was observed
Structure (SMILES): Nc1ncnc2c1c(-c1ccc(NC(=O)Nc3cc(C4(C(F)(F)F)CC4)on3)c(F)c1)cn2C1CC1 [solid form Type G]

form change after heating [1, 7]: amorphization was observed
form change before and after ambient drying [2]: no form change was observed
Structure (SMILES): Nc1ncnc2c1c(-c1ccc(NC(=O)Nc3cc(C4(C(F)(F)F)CC4)on3)c(F)c1)cn2C1CC1 [solid form Type D]

Structure (SMILES): Nc1ncnc2c1c(-c1ccc(NC(=O)Nc3cc(C4(C(F)(F)F)CC4)on3)c(F)c1)cn2C1CC1 [solid form Type L]
form change after heating [1, 8]: form change to solid form Type J was observed

form change after heating [1, 8]: form change was observed
form change before and after ambient drying [2]: no form change was observed
Structure (SMILES): Nc1ncnc2c1c(-c1ccc(NC(=O)Nc3cc(C4(C(F)(F)F)CC4)on3)c(F)c1)cn2C1CC1 [solid form Type I]

form change after heating [1, 6]: no form change was observed
form change after heating ([1]; heated to 160 °C and cooled to RT): changed to amorphous
form change before and after ambient drying [2]: no form change was observed
Structure (SMILES): Nc1ncnc2c1c(-c1ccc(NC(=O)Nc3cc(C4(C(F)(F)F)CC4)on3)c(F)c1)cn2C1CC1 [solid form Type F]

form change before and after DVS test [3]: no form change was observed
hygroscopicity [3]: slightly hygroscopic
form change after heating [1, 9]: no form change was observed
form change before and after ambient drying [2]: no form change was observed
Structure (SMILES): Nc1ncnc2c1c(-c1ccc(NC(=O)Nc3cc(C4(C(F)(F)F)CC4)on3)c(F)c1)cn2C1CC1 [solid form Type Q]

form change before and after DVS test [3]: no form change was observed
water uptake ([3]; 25 °C/80% RH): lower than 0.2 wt %
hygroscopicity [3]: nearly non-hygroscopic
form change after heating [1, 9]: no form change was observed
form change before and after ambient drying [2]: no form change was observed
slurry competition result (form obtained) ([4]; 5 °C, EtOAc:n-Heptane (1:1)): Type B
slurry competition result (form obtained) ([4]; 50 °C, EtOAc:n-Heptane (1:1)): Type B
slurry competition result (form obtained) ([4]; RT, EtOAc:n-Heptane (1:1)): Type B
slurry competition result (form obtained) ([4]; RT, EtOAc:n-Heptane (1:2)): Type B
slurry competition result (form obtained) ([4]; RT, EtOAc:n-Heptane (2:1)): Type B
Structure (SMILES): Nc1ncnc2c1c(-c1ccc(NC(=O)Nc3cc(C4(C(F)(F)F)CC4)on3)c(F)c1)cn2C1CC1 [solid form Type B]

form change after heating [1, 9]: changed to amorphous
Structure (SMILES): Nc1ncnc2c1c(-c1ccc(NC(=O)Nc3cc(C4(C(F)(F)F)CC4)on3)c(F)c1)cn2C1CC1 [solid form Type H]

Solubility ([5]; Acetone, room temperature): S > 46.0 mg/mL
Solubility ([5]; CHCl3, room temperature): S > 40.0 mg/mL
Solubility ([5]; DCM, room temperature): S < 1.3 mg/mL
Solubility ([5]; DMAc, room temperature): S > 48.0 mg/mL
Solubility ([5]; DMSO, room temperature): S > 48.0 mg/mL
Solubility ([5]; EtOAc, room temperature): S > 38.0 mg/mL
Solubility ([5]; H2O, room temperature): S < 1.0 mg/mL
Solubility ([5]; MIBK, room temperature): S > 42.0 mg/mL
Solubility ([5]; NMP, room temperature): S > 50.0 mg/mL
Solubility ([5]; THF, room temperature): S > 50.0 mg/mL
Solubility ([5]; Toluene, room temperature): S < 1.1 mg/mL
Solubility ([5]; n-Heptane, room temperature): S < 1.2 mg/mL
form change after heating ([1]; heated to 115 °C and cooled to RT): no form change was observed
change on heating (VT-XRPD) ([1]; heated to 120 °C): decrease of crystallinity was observed
change on heating (VT-XRPD) ([1]; heated to 175 °C): amorphization was observed
form conversion on storage ([2]; ambient condition, about ~45% RH, overnight): could convert to solid form Type L
form change before and after ambient drying [2]: no form change was observed
Structure (SMILES): Nc1ncnc2c1c(-c1ccc(NC(=O)Nc3cc(C4(C(F)(F)F)CC4)on3)c(F)c1)cn2C1CC1
form change (VT-XRPD) ([1]; N2 sweeping, finished when heated to 100 °C): form change from solid form Type A into another new form, named as solid form Type O
